The Emax is the maximal effect, on the per cent scale that the assay sets.

We go through one molecule from patent US7521528B2, “Conformationally constrained parathyroid hormone (PTH) analogs with lactam bridges” (The General Hospital Corporation, priority 2003, dated 2009).

Common to all, as to format: cell-based
Test [1] deals with T1, recombinant full-length P1R (Homo sapiens, UniProt Q03431).
T1 construct: expressed in transfected cells
T1 sequence (Q03431 27-593): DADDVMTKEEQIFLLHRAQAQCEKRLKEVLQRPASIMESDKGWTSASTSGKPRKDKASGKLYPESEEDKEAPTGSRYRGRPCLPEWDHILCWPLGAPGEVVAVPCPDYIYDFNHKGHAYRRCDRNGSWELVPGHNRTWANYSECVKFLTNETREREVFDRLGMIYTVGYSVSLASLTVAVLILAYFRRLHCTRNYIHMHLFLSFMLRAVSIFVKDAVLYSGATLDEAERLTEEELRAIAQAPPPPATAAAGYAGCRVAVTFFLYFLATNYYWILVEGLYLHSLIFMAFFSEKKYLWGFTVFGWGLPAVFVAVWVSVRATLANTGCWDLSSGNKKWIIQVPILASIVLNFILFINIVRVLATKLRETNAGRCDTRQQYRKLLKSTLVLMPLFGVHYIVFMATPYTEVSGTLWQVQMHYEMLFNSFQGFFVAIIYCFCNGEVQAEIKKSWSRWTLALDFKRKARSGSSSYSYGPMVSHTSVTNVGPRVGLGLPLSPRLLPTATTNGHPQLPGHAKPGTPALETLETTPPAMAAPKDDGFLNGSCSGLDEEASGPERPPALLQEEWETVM
Put plainly: cAMP stimulation in HKRK-B28 cells. As to the method:
(§1) Cell Culture. The cell line HKRK-B28 (Takasu, H., et al., J. Bone Miner. Res. 14:11-20 (1999)) was derived from the porcine kidney cell line, LLC-PK1 by stable transfection with plasmid DNA encoding the full-length P1R and expresses ˜280,000 receptors per cell. These cells, as well as COS-7 cells and SaOS-2-B10 cells, were cultured at […] in T-75 flasks ([…]) in Dulbecco's modified Eagle's medium (DMEM) supplemented with fetal bovine serum (10%), penicillin G (20 units/ml), streptomycin sulfate (20 μg/ml) and amphotericin B (0.05 μg/ml) in a humidified atmosphere containing 5% CO2. Stock solutions of EGTA/trypsin and antibiotics were from GIBCO; fetal bovine serum was from Hyclone Laboratories (Logan, Utah). […]
(§2) cAMP Stimulation. […] The cAMP content of the diluted lysate was determined by radioimmunoassay. The EC50 response values were calculated using nonlinear regression (see below).
(§3) Data Calculation. […] Differences between paired data sets were statistically evaluated using a one-tailed Student's t-test, assuming unequal variances for the two sets.
The effects of installing a direct covalent linkage between the side chains of the residues at positions 6 and 10 on PTH analog function were also assessed. […]

In test [2] the target is T2, P1R-DelNt (truncated human P1R deleted for residues 24-181) (Homo sapiens, UniProt Q03431).
T2 construct: expressed in transfected cells; host or cells: COS-7 (transient transfection, FuGENE 6)
T2 sequence (Q03431 with tags, fused parts or gaps limits assumed): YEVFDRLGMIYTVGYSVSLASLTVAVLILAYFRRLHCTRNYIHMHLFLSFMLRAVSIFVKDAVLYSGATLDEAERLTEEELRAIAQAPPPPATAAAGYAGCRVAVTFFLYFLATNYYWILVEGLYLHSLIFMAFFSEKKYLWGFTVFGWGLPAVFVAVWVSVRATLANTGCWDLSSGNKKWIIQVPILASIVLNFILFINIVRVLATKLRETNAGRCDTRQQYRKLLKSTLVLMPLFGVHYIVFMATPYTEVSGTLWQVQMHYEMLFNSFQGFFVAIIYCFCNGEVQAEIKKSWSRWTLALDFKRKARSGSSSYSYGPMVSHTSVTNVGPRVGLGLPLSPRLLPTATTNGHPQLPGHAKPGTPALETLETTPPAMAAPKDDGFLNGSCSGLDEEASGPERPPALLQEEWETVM
Put plainly: cAMP stimulation in COS-7 cells transiently transfected with P1R-DelNt. Conditions: at 1×10^−5, percent of maximum response of PTH(1-34) on P1R-WT. Here is the method: as §1, §2, §3
(§4) The peptide PTH(1-34)([Tyr^34]hPTH(1-34)NH2)(SEQ. ID. NO. 11) and analogs containing the indicated residues at positions 6 and/or 10 were evaluated for the capacity to stimulate cAMP accumulation in COS-7 cells transiently transfected with either the wild-type P1R(P1R-WT) or P1R-DelNt. […]

The target of test [3] is T3, wild-type human P1R (Homo sapiens, UniProt Q03431).
T3 construct: expressed in transfected cells; host or cells: COS-7 (transient transfection, FuGENE 6)
T3 sequence (Q03431 27-593): T1 sequence (Q03431 27-593)
Put plainly: cAMP stimulation in COS-7 cells transiently transfected with P1R-WT. As to the method:
as §1, §2, §3, §4

As for `CC[C@H](C)[C@H](NC(=O)[C@H](CCC(=O)O)NC(=O)[C@H](CO)NC(=O)[C@@H](NC(=O)[C@@H](N)CO)C(C)C)C(=O)N[C@@H](CCC(N)=O)C(=O)N[C@@H](CC(C)C)C(=O)N[C@@H](CCSC)C(=O)N[C@@H](Cc1c[nH]cn1)C(=O)N[C@@H](CC(N)=O)C(=O)N[C@@H](CC(C)C)C(=O)NCC(=O)N[C@@H](CCCCN)C(=O)N[C@@H](Cc1c[nH]cn1)C(=O)N[C@@H](CC(C)C)C(=O)N[C@@H](CC(N)=O)C(=O)N[C@@H](CO)C(=O)N[C@@H](CCSC)C(=O)N[C@@H](CCC(=O)O)C(=O)N[C@@H](CCCNC(=N)N)C(=O)N[C@H](C(=O)N[C@@H](CCC(=O)O)C(=O)N[C@@H](Cc1c[nH]c2ccccc12)C(=O)N[C@@H](CC(C)C)C(=O)N[C@@H](CCCNC(=N)N)C(=O)N[C@@H](CCCCN)C(=O)N[C@@H](CCCCN)C(=O)N[C@@H](CC(C)C)C(=O)N[C@@H](CCC(N)=O)C(=O)N[C@@H](CC(=O)O)C(=O)N[C@H](C(=O)N[C@@H](Cc1c[nH]cn1)C(=O)N[C@@H](CC(N)=O)C(=O)N[C@@H](Cc1ccc(O)cc1)C(N)=O)C(C)C)C(C)C` [PTH(1-34) (SEQ. ID. NO. 10), [Tyr^34]hPTH(1-34)amide], the “maximum cAMP response observed” value is given as 416±51 pM per well in test [1] (PTH(1-34)) and 294±15 pM per well in test [3] (COS-7 cells, P1R-WT). Further, the maximal response (Emax) at 1 µM came out at 100 ± 5% in test [1] (at 1×10^−6 M, percent of maximum response of PTH(1-34)) and 100 ± 1% in test [3] (COS-7, at 1×10^−6M, percent of maximum response of PTH(1-34) on P1R-WT). In addition, the Emax in test [2] turned out to be 44 ± 2%.
